In this assay the test system is serotonin (5-hydroxytryptamine (5HT)) uptake. Put plainly: [3H]-Serotonin uptake in rat whole brain and hypothalamic synaptosomes. The format is biochemical. As to conditions: [3H]-5HT 50 nM, 37° C., 5 minutes. The procedure:
[^3 H]-Serotonin Uptake in Rat Whole Brain and Hypothalamic Synaptosomes
Others claim that altered serotonergic function determines the change associated with obsessive-compulsive disorder.
This activity is determined in an assay which measures [^3 H]-serotoninuptake in rat whole brain and hypothalamic synaptosomes. The assay described below is used as a biochemical screen for potential antidepressants which block serotonin (5-hydroxytryptamine (5HT)) uptake.
[^3 H]-5HT transport has been characterized in the central nervous system tissue and found to be saturable, sodium and temperature-dependent,inhibited by ouabain, metabolic inhibitors, tryptamine analogs and tricyclic antidepressants.
Male CR Wistar rats (100-125 g)
1. Krebs-Henseleit Bicarbonate Buffer, pH 7.4 (KHBB):
The batch is aerated for 60 minutes with 95% 02 /5% CO2, the pH is checked to insure it is at 7.4±0.1, then add bovine serum albumin (Sigma cat# A-7906) 1 mg/ml.
3. Sucrose solution: 0.32M sucrose containing 5 mM HEPES and 0.1 mM EDTA; pH to 7.3 using Tris base.
4. A 0.1 mM stock solution of serotonin creatinine SO4 is made up in 0.01N HCl. This is used to dilute the specific activity of the radiolabeled 5HT.
5. 5-[1,2-^3 H(N)]-Hydroxytiyptamine creatinine sulfate (serotonin), specific activity 20-30 Ci/mmol, is used.
The final desired concentration of [^3 H]-5HT in the assay is 50 nM. The dilution factor is 0.8. […]

For `CN(C)CCC=C1c2ccccc2CCc2ccccc21` [Amitriptyline, reference compound], the IC50 – broadly, the midpoint of a concentration-inhibition curve – came to 91 nM.

The record behind these values is US5874583A, “2,3-dihydro-1H-isoindole derivatives” (Hoechst Marion Roussel Inc., priority 1997, dated 1999).
